Experimental data as given in ChEMBL document CHEMBL3714768, “Tautomycetin and Tautomycetin analog biosynthesis” (2012).

What was measured:
[1] = Cytotoxicity against human HCT116 cells by fluorescent Calcein-AM assay; assay type: functional, cell-based; settings: HCT-116
[2] = tested on: MCF7; assay: Cytotoxicity against human MCF7 cells by fluorescent Calcein-AM assay; assay type: functional, cell-based
[3] = Cytotoxicity against human DU145 cells by fluorescent Calcein-AM assay; assay type: functional, cell-based; settings: DU-145
[4] = Selectivity index, ratio of IC50 for purified human red blood cell PP2A (unknown origin) to IC50 for purified rabbit skeletal muscle PP1

`C=C/C(=C/C(=O)C[C@H](C)C[C@@H](C)CC[C@H](O)[C@H](C)C(=O)C[C@@H](O)[C@H](C)[C@@H](C)OC(=O)C[C@@H](O)C1=C(C)C(=O)OC1=O)CC` showed an IC50 [1] of 6.8 µM, an IC50 [2] of 8.9 µM and an IC50 [3] of 5.2 µM.
Molecule `CCC(/C=C/C(=O)O)=C\C(=O)C[C@H](C)C[C@@H](C)CC[C@H](O)[C@H](C)C(=O)C[C@@H](O)[C@H](C)[C@@H](C)OC(=O)C[C@@H](O)C1=C(C)C(=O)OC1=O` has a Ratio IC50 [4] of 3.3.
